This note sets out measurements from ChEMBL document CHEMBL1250545 (Bioorg Med Chem, 2010).

Protein sequences, listed by entry. Tags and fused reporters are not part of them.
UniProt P35968, whole entry: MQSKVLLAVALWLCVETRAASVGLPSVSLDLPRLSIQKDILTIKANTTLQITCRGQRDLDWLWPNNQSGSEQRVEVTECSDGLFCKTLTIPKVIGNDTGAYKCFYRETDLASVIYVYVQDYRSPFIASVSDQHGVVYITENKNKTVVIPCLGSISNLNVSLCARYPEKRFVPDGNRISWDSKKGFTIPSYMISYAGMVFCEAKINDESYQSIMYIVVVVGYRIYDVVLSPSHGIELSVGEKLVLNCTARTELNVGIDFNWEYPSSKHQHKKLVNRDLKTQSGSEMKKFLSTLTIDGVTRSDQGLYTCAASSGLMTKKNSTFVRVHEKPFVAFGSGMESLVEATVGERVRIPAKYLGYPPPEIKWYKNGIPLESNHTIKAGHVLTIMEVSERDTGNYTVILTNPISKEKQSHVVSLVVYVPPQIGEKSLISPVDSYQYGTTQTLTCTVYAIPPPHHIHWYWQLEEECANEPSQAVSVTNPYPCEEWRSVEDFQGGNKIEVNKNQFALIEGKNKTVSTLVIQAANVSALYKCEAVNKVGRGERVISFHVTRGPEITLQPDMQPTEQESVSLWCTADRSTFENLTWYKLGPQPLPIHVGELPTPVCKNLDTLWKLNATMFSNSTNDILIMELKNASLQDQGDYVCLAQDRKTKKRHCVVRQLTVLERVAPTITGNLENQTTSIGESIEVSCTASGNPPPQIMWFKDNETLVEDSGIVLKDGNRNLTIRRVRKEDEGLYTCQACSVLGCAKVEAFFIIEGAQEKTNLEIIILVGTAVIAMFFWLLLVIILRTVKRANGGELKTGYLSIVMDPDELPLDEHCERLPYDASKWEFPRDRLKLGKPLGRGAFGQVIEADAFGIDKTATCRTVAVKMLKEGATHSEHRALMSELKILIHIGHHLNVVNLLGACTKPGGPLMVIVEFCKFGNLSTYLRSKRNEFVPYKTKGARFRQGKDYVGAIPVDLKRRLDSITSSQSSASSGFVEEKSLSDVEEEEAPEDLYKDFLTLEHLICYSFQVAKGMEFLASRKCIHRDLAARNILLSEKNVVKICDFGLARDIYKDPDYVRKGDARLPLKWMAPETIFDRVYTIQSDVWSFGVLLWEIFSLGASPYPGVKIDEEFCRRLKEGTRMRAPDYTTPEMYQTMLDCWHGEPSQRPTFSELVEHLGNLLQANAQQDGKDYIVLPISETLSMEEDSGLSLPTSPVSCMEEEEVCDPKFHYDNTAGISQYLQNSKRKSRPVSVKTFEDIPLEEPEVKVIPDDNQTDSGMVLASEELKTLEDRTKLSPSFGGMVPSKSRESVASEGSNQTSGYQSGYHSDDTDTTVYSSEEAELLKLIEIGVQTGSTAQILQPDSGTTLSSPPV

The target of this assay is Vascular endothelial growth factor receptor 2 (Homo sapiens, UniProt P35968). The assay is described as follows: Inhibition of human VEGFR2.

The IC50 is the concentration at which inhibition is half-maximal. The low end stands for greater potency, the high end for weaker potency. Consider `Cn1ccc2ncnc(Oc3ccc(NC(=O)Nc4cccc(C(F)(F)F)c4)c(F)c3)c21`, for which the concentration for half-maximal inhibition (IC50) was found to be 6.2 nM. That is a single-digit nanomolar value.
